Values of other authors in patent publication US9234902B2, “Method for monitoring anticoagulant therapy” (priority 2011, dated 2016).

Settings: physiologically active gamma carboxylated VKD coagulation factor; cited from earlier work

FX: vitamin K dependent coagulation factor X (Stuart factor)
half-life: ~52 h
